{
  "source": "ChEMBL document CHEMBL5726139",
  "about": "“Heterocyclic compounds and methods of their use” (2017)",
  "biological_target": "T1, Type-2 angiotensin II receptor (Homo sapiens, UniProt P50052)",
  "T1 sequence (P50052 whole entry)": "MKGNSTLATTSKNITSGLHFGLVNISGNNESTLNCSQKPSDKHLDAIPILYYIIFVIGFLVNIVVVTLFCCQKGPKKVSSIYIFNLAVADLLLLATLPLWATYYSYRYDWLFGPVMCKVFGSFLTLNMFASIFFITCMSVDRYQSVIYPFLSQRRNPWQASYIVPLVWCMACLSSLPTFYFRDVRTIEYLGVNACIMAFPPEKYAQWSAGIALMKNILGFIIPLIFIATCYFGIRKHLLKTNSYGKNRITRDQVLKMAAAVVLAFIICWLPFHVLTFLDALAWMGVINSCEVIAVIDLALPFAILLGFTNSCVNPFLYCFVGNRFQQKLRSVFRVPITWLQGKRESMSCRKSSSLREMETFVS",
  "experiment": "Receptor Binding Assay: 120 μL membrane ([…]) was incubated with 15 μL of [125I]-CGP42112A and 15 μL of compound at RT for 1.5 hrs. The binding reaction was stopped by rapid filtration through Unifilter GF/C plates (presoaked in 0.3% (v:v) BSA). Plate was washed three times with ice cold wash buffer. The filtration plates were dried at 37° C. overnight. 50 μL of scintillation cocktail was added to each well. Radioactivity was determined using MicroBetaTriluxmicroplate scintillation counter.",
  "data": [
    {"smiles": "O=C(O)[C@@H]1C[C@H](OCCCc2ccccc2)CN1C(=O)C(c1ccccc1)c1ccccc1", "values": [
      {"measurement": "IC50", "value": 0.181, "unit": "µM"}
    ]}
  ]
}
